# From patent publication US3957788A (priority 1974, dated 1976)
# Test system: female mice of ddN strain
# Assay: Phenylquinone method (analgesic activity, chemical pain)
# Assay type: in vivo, mouse
# Conditions: p.o., drug 30 minutes before challenge
row,SMILES,Phenylquinone method (analgesic activity)
1,COc1ccc(CC(c2ccccc2)N2CCN(c3ccccc3OC)CC2)cc1 (racemic),38.5
2,CN(C)C(Cc1ccccc1)c1ccccc1 (stereo not shown),52.3
3,COc1ccccc1N1CCN(C(Cc2ccc(C)cc2)c2ccccc2)CC1 (racemic),49.4
4,COc1ccccc1N1CCN(C(Cc2ccc(Cl)cc2)c2ccccc2)CC1 (racemic),83
